The results in this text go back to PMC6278073 (BMC Pharmacology & Toxicology, 2018).

The conditions of series [1]: both, C57BL/6, mouse, in vivo, 10 mg/kg.
A further series in a line: in vivo. Particulars: both, C57BL/6, mouse, 10 mg/kg.

The structures appear in SMILES notation. Read-outs that look alike come from different tables or passages of the source.

On to `Cc1ccc(NC(=O)c2ccc(CN3CCN(C)CC3)cc2)cc1Nc1nccc(-c2cccnc2)n1` [imatinib], for which the bioavailability worked out at 107% in series [1] and 100% in the series “in vivo”.
